High-throughput results (PubChem BioAssay)
TDP1 inh – TDP1 (human) enzyme inhibition; recombinant TDP1, AlphaScreen DNA substrate cleavage; Q9NUW8; AID 485290; actives 0.28% (n = 350,000); Potency, µM (series often up to 130 µM), most hits filed as inhibitors; note: nearly all actives have a fitted effect of over 40% in size
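E. coli-derived human Tdp1, 1 nM final. Cpd preinc 15 min RT; substrate 15 nM final, 5 min RT; AS bead mix 10 ug/ml final, 10 min RT. Signal loss = tyrosine-FITC cleavage. No-enzyme wells = max signal.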
DT40 TDP1 no CPT – qHTS for Inhibitors of human tyrosyl-DNA phosphodiesterase 1 (TDP1): qHTS in cells in absence of CPT; Potency, µM (top dose mostly 46.2 µM), most hits filed as inhibitors; AID 686978, 2013; actives 15% (n = 420,000); DT40 Tdp1-/- hTDP1 cells, no CPT, ATP luminescence, 48 h; note: nearly all actives have a fitted effect of over 55% in size
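Compound effects on proliferation are scored in DT40 Tdp1-/-;hTDP1 cells in the absence of CPT. ATP levels (CellTiter-Glo luminescence) are recorded after a ≥48 hr, 37 °C incubation.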
miR-21 reporter – miR-21 reporter, rising signal. 340,000 tested, under 10 active. Potency, µM (highest dose often 38.3 µM). HeLa miR-21 FLuc reporter, luciferase, 48 h. AID 2288; active = well fitted rising curve with a large enough effect; inconclusive = small, poorly fitted or top-dose-only effect; inactive = no such curve, though single readings can be large or run the other way;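 further: miR-21 action dims this reporter so a rising signal means less miR-21 action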
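HeLa cells stably expressing CMV-driven firefly luciferase with a downstream miR-21 binding sequence, endogenously expressing miR-21, were treated with titrations (up to about 40uM final) for 48 hours at 37 degree Celsius. Luciferase luminescence was read after lysis.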
uPA generation – blocks generation of uPA at the cell surface | cell surface uPA generation assay, qHTS | Potency, µM (doses to about 38.3 µM), most hits filed as inhibitors | actives 0.31% (n = 330,000) | AID 540303; active = well fitted inhibition curve with a large enough effect; inconclusive = small, poorly fitted or top-dose-only effect; inactive = no such curve, though single readings can be large or run the other way; tested in mouse RAW 264.7 cells; note: nearly all actives have a fitted effect of over 55% in size
TDP1 cell CPT – growth inhibition of DT40 Tdp1-/-;hTDP1 cells with camptothecin (screen for TDP1 inhibitors); chicken DT40 Tdp1-/-;hTDP1 cells + 20 nM CPT, ATP luminescence, 48 h; Potency, µM (series often up to 46.2 µM), usual class: inhibitors; actives 12% (n = 420,000); note: nearly all actives have a fitted effect of over 55% in size
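Chicken DT40 Tdp1-/- cells stably complemented with human TDP1 were seeded at 400 cells/well in medium containing 20 nM camptothecin, exposed to pin-transferred compounds, and grown at 37 °C for at least 48 hr. Viability was read as ATP luminescence.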
Hits are given with their value; - = inactive; ? = inconclusive; . = no result given. Only some compounds are listed: those with a hit (about 16% of all), similar ones and a draw of the others. Unless noted, calls come from the whole dose curve; as a rule, active = well fitted curve in the direction sought with a large enough effect; inconclusive = small, poorly fitted or top-dose-only effect, or another doubt; inactive = no such curve, though single readings can be large; an effect the other way counts as inactive or inconclusive.

SMILES	TDP1 inh	DT40 TDP1 no CPT	miR-21 reporter	uPA generation	TDP1 cell CPT
CC(C)CCC[C@@H](C)[C@@H]1CC[C@H]2C3=CC=C4CC(O)CC[C@]4(C)[C@H]3CC[C@@]21C (some centres not stated)	-	.	.	.	.
CC1CCCCN1C(=O)c1cccc(NC2=C(Cl)C(=O)N(Cc3ccccc3)C2=O)c1 (configuration not stated)	-	?	.	?	?
CC1CCN(C(=O)c2ccc(NC3=C(Cl)C(=O)N(Cc4ccccc4)C3=O)cc2)CC1	-	12µM	.	?	18µM
O=C1C(Cl)=C(Nc2cccc(O)c2)C(=O)N1Cc1ccccc1	-	?	-	-	23µM
COc1cc(CCCN2C(=O)C(=O)NC[C@@H]2C(C)O)cc(OC)c1OC (some centres not stated)	-	-	-	-	-
Cc1ccccc1N=C1c2cc([N+](=O)[O-])ccc2-c2ncccc21	-	?	-	-	?
CCOc1ccc(NC(=O)CN(C)C(=O)CCc2ccccc2Cl)cc1OCC	-	-	-	-	-
CCOc1ccc(NC(=O)CN(C)C(=O)c2cccc3ccccc23)cc1OCC	-	?	.	-	-
CCOc1ccc(NC(=O)CN(C)C(=O)c2ccccc2OCCOc2ccccc2)cc1OCC	-	8.2µM	.	-	?
CCOc1ccc(NC(=O)CN(C)C(=O)CCCOc2ccc(Cl)c(C)c2)cc1OCC	-	23µM	-	-	15µM
CCOc1ccc(NC(=O)CN(C)C(=O)c2ccccc2CCc2ccccc2)cc1OCC	.	?	.	-	21µM
O=C(O)c1ccc2c3c(ncnc13)-c1ccccc1C2=O	-	23µM	-	-	23µM
CCN(C(=O)CSc1nc(-c2ccccc2)no1)c1ccccc1	-	?	-	.	-
CC(C)c1ccc(-c2noc(SCC(=O)N(C)c3ccc(F)cc3)n2)cc1	-	23µM	-	.	26µM
CC(C)c1ccc(-c2noc(SCC(=O)N3CCCCC3)n2)cc1	-	12µM	-	.	?
CC(C)c1ccc(-c2c(C#N)c(N)nc(SCC(=O)N3CCCCC3)c2C#N)cc1	-	?	-	-	9.2µM
CC(C)c1ccc(-c2c(C#N)c(N)nc(SCC(=O)N3CCCCCC3)c2C#N)cc1	-	-	-	-	-
COc1ccc(S(=O)(=O)NC(=O)C2(C)CCN2C(=O)C2CC2)cc1 (configuration not stated)	.	-	.	.	-
COc1ccc2sc(N(Cc3cccnc3)C(=O)c3cccs3)nc2c1	-	18µM	-	.	21µM
COc1cccc2sc(N(Cc3cccnc3)C(=O)c3ccc4c(c3)OCCO4)nc12	-	16µM	-	.	?
CCOc1ccc2nc(N(Cc3cccnc3)C(=O)c3cccs3)sc2c1	-	-	-	.	-
O=C(c1ccc2c(c1)OCCO2)N(Cc1cccnc1)c1nc2c(F)cc(F)cc2s1	-	?	-	.	?
CCOc1cccc2sc(N(Cc3cccnc3)C(=O)c3ccc(C#N)cc3)nc12	-	23µM	-	.	18µM
O=C(c1ccc2c(c1)OCCO2)N(Cc1cccnc1)c1nc2c(F)cccc2s1	-	?	-	.	21µM
COc1cccc2sc(N(Cc3cccnc3)C(=O)Cc3ccccc3)nc12	-	?	-	.	?
SMILES	TDP1 inh	DT40 TDP1 no CPT	miR-21 reporter	uPA generation	TDP1 cell CPT
Cc1ccc(C2C(C#N)=C(N)Oc3n[nH]c(-c4cccs4)c32)s1 (configuration not stated)	-	-	-	-	-
CCOc1ccc(Cl)cc1-c1cc(C(=O)Nc2ccc(F)cc2)[nH]n1	.	16µM	.	.	?
COc1ccc(F)cc1-c1cc(C(=O)Nc2cccnc2)[nH]n1	.	-	.	.	-
COc1ccc(NC(=O)c2cc(-c3cc(Cl)ccc3C)n[nH]2)cn1	.	?	.	.	23µM
COc1ccc(NC(=O)c2cc(-c3ccc(C)c(C)c3O)n[nH]2)cc1Cl	.	?	-	-	?
COc1ccc(Cl)cc1-c1cc(C(=O)Nc2ccc(C(C)(C)C)cc2)[nH]n1	.	15µM	.	.	21µM
COc1ccc(Cl)cc1-c1cc(C(=O)Nc2ccc(C)c(NS(C)(=O)=O)c2)[nH]n1	.	21µM	.	.	18µM
Cc1c(N2C(=O)C(=O)/C(=C(/O)c3ccc(Br)cc3)C2c2cccnc2)c(=O)n(-c2ccccc2)n1C (configuration not stated)	-	-	-	-	-
COc1ccc([C@@H]2[C@@H]3C(=O)N(C(C)(C)C)C(=O)[C@@H]3[C@]3(Cc4ccc(Cl)cc4)C(=O)N(c4cccc(F)c4)C(=O)N23)cc1	-	?	.	-	?
COc1ccccc1OCCn1c(-c2ccc(Br)cc2)nc2ccccc2c1=O	.	-	-	.	-
CCCOc1ccc(F)cc1-c1cc(C(=O)Nc2ccccc2)[nH]n1	.	?	.	.	-
COc1ccc(NC(=O)CSc2cc(C)ccc2C)cn1	-	16µM	-	-	?
COc1ccc(NCC(=O)Nc2ccc(Cl)cc2C)c(OC)c1	-	29µM	-	-	?
COc1ccc(NC(=O)c2cc(-c3cc(Cl)ccc3OC)n[nH]2)c(C)c1	.	18µM	.	.	?
CCCOc1ccc(F)cc1-c1cc(C(=O)Nc2ccc(OC)cc2OC)[nH]n1	.	18µM	.	.	?
Cc1cc(NC(=O)C(C)SCC(=O)NCc2ccc(F)cc2)no1 (configuration not stated)	-	-	.	-	-
Cc1cc(C)n(-c2nc3ccccc3c(=O)n2OCC#N)n1	.	0.65µM	-	-	0.65µM
CCOC(=O)COn1c(-n2nc(C)cc2C)nc2ccccc2c1=O	.	26µM	-	-	?
COC(=O)COn1c(-n2nc(C)cc2C)nc2ccccc2c1=O	-	?	-	-	?
c1ccc(C[n+]2c(-c3ccccc3)csc2Nc2ccccc2)cc1	-	?	-	-	10µM
CC[n+]1c(-c2ccccc2)csc1Nc1c(C)n(C)n(-c2ccccc2)c1=O	-	-	-	-	?
c1ccc(Nc2scc(-c3ccccc3)[n+]2Cc2ccco2)cc1	-	23µM	-	-	16µM
O=C(NCCc1ccc(Cl)cc1)c1ccc2c(c1)nc1n2CCOC1	-	?	-	.	?
O=C(CCc1nc(-c2ccc(F)cc2)no1)NCc1ccccc1CN1CCOCC1	-	?	.	-	?
CCCc1nc(N2CCOCC2)c2sc(=S)n(-c3ccccc3)c2n1	-	.	-	.	.
SMILES	TDP1 inh	DT40 TDP1 no CPT	miR-21 reporter	uPA generation	TDP1 cell CPT
Clc1ccc(-c2csc3ncnc(Cl)c23)cc1	-	16µM	-	-	?
OCCCNc1ncnc2scc(-c3ccc(Cl)cc3)c12	.	21µM	-	-	?
Fc1ccc(-c2csc3ncnc(Cl)c23)cc1	-	?	-	-	?
O=S(=O)(Nc1ncnc2scc(-c3ccc(F)cc3)c12)c1cc(F)ccc1F	-	29µM	-	-	?
COc1ccc(/C=C/C(=O)OCC(=O)Nc2cc(S(=O)(=O)N(C)C)ccc2Cl)cc1	-	-	-	-	-
Cc1nc(NC(=O)COC(=O)/C=C/c2ccco2)c(Cl)cc1Cl	.	-	.	-	-
